{
  "sequences": {"note": "Chains of the proteins cited; added tags and fusions are not shown.", "UniProt P10275, whole entry T878A": "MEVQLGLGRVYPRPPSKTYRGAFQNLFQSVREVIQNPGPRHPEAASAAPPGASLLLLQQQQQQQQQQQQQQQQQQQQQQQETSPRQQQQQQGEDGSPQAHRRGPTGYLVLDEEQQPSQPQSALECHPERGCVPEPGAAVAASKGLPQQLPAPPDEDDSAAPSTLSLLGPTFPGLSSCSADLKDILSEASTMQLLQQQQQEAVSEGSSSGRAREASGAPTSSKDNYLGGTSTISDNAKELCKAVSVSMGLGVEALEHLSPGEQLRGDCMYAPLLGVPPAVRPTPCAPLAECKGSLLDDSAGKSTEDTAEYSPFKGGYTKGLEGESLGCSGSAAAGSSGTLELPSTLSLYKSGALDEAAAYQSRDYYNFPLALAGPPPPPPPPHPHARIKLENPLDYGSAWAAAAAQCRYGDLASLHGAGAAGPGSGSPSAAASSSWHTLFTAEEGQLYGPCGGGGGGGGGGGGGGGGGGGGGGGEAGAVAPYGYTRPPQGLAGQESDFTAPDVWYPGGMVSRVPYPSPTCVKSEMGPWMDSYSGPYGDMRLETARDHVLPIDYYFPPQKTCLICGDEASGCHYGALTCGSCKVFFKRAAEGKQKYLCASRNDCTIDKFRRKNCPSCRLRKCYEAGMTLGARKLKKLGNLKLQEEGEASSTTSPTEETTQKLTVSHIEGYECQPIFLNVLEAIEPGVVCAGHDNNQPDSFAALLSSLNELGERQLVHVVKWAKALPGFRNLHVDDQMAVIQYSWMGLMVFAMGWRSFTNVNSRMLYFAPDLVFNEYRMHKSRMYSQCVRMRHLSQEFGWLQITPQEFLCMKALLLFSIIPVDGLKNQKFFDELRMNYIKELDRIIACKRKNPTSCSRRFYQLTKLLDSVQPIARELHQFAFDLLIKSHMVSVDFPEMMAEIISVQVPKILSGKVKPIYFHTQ"},
  "source": "paper PMC10141604",
  "about": "“Small-Molecule Inhibition of Androgen Receptor Dimerization as a Strategy against Prostate Cancer” (ACS Central Science, 2023)",
  "data": [
    {"molecular_target": "AR (Homo sapiens, UniProt P10275, T878A)", "assay": "AR transcriptional activity assay (LNCaP-ARR2PB-eGFP cells)", "conditions": "read-out: IC50, AR transcriptional activity, 5 nM DHT, 3 days", "units": {"IC50": "nM"}, "values": [
      {"compound": "CC(=O)Cc1nsc(NC(=O)c2cc(-c3ccc4ccccc4c3)oc2C)n1", "IC50": 9590},
      {"compound": "CC(=O)Cc1nsc(NC(=O)c2coc(-c3ccc(Cl)c(Cl)c3)n2)n1", "IC50": "> 50000"},
      {"compound": "CC(=O)Cc1nsc(NC(=O)c2cc(-c3cccc(C#N)c3)oc2C)n1", "IC50": 140},
      {"compound": "CC(=O)Cc1nsc(NC(=O)c2cc(-c3cccc(O)c3)oc2C)n1", "IC50": 14800},
      {"compound": "CC(=O)Cc1nsc(NC(=O)c2cc(-c3ccc(Cl)cc3)oc2C)n1", "IC50": 1020},
      {"compound": "CC(=O)Cc1nsc(NC(=O)c2cc(-c3cccc(C(N)=O)c3)oc2C)n1", "IC50": "> 50000"},
      {"compound": "CC(=O)Cc1nsc(NC(=O)c2cc(-c3cc(C(F)(F)F)ccc3Cl)oc2C)n1", "IC50": 1100},
      {"compound": "CC(=O)Cc1nsc(NC(=O)c2cc(-c3cccc(C(C)(C)C)c3)oc2C)n1", "IC50": 500},
      {"compound": "CC(=O)Cc1nsc(NC(=O)c2cc(-c3cccnc3)oc2C)n1", "IC50": "> 50000"},
      {"compound": "CC(=O)Cc1nsc(NC(=O)c2cc(-c3cc(Cl)ccc3Cl)oc2C)n1", "IC50": 2070},
      {"compound": "CC(=O)Cc1nsc(NC(=O)c2cc(-c3cc(Cl)cc(Cl)c3)oc2C)n1", "IC50": 3760},
      {"compound": "CC(=O)Cc1nsc(NC(=O)c2cc(-c3cccc(Cl)c3)oc2C)n1", "IC50": 290},
      {"compound": "CC(=O)Cc1nsc(NC(=O)c2cc(-c3ccccc3)oc2C)n1", "IC50": 4100},
      {"compound": "CC(=O)Cc1nsc(NC(=O)c2cc(-c3cccc4ccccc34)oc2C)n1", "IC50": 16400},
      {"compound": "CC(=O)Cc1nsc(NC(=O)c2cc(-c3cccc(OC(C)=O)c3)oc2C)n1", "IC50": 10300},
      {"compound": "CC(=O)Cc1nsc(NC(=O)c2cc(-c3cccc(Br)c3)oc2C)n1", "IC50": 230},
      {"compound": "CC(=O)Cc1nsc(NC(=O)c2cc(-c3cccc(NC(C)=O)c3)oc2C)n1", "IC50": "> 50000"},
      {"compound": "CC(=O)Cc1nsc(NC(=O)c2cc(-c3cccc([N+](=O)[O-])c3)oc2C)n1", "IC50": 790},
      {"compound": "CC(=O)Cc1nsc(NC(=O)c2cc(-c3ccc(Cl)cc3Cl)oc2C)n1", "IC50": 5750},
      {"compound": "COc1cccc(-c2cc(C(=O)Nc3nc(CC(C)=O)ns3)c(C)o2)c1", "IC50": 80},
      {"compound": "CC(=O)Cc1nsc(NC(=O)c2cc(-c3cccc(N)c3)oc2C)n1", "IC50": 3520},
      {"compound": "CC(=O)Cc1nsc(NC(=O)c2cc(-c3ccccc3Cl)oc2C)n1", "IC50": 860},
      {"compound": "CC(=O)Cc1nsc(NC(=O)c2cc(-c3cccc(F)c3)oc2C)n1", "IC50": 700}
    ]}
  ]
}
